Only a part is listed here, and it is no random draw. The source made the active and inactive calls. No stated cut-off is given here; in the data, active means inhibition above about 50%; inactive means the rest.

Protein sequences, listed by entry. Tags and fused reporters are not part of them.
UniProt P13612, whole entry, looked up: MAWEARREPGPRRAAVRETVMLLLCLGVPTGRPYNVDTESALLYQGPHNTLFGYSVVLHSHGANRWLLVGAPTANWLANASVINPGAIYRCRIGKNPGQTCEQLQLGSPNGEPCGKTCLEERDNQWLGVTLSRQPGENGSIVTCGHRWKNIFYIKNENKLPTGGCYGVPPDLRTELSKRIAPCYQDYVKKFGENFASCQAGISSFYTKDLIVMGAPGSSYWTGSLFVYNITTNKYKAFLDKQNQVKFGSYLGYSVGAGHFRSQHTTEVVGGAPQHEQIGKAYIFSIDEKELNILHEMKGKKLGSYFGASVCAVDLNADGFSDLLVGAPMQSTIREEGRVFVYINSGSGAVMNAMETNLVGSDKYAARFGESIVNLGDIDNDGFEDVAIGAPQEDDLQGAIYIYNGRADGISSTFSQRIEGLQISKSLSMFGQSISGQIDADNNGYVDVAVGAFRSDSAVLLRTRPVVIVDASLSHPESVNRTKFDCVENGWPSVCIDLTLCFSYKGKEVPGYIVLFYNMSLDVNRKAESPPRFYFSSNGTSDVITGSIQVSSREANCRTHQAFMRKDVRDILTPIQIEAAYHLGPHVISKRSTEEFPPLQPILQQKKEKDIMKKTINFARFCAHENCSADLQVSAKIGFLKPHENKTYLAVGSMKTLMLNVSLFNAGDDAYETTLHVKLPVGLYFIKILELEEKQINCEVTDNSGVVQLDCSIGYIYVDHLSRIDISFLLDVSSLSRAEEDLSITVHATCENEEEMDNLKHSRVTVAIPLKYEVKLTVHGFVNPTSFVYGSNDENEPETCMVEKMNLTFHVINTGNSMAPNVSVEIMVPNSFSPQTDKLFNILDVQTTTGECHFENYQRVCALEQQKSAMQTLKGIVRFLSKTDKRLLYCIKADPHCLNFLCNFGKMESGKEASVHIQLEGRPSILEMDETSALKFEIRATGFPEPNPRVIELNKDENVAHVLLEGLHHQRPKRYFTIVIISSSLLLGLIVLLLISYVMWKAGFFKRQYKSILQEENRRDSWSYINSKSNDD

This test has as its target Integrin alpha-4 (Homo sapiens) (UniProt P13612). The test is described as follows: VLA-4 integrin binding inhibitors – MLPCN library, flow cytometry, VLA-4 expressing cells, VLA-4 allosteric modulator project, primary screen (AID 2557). Particulars: ligand binding flow cytometry, stronger effect = higher value, about 7 µM as worked out from the volumes in the protocol. (In general: Flow cytometry measures light scatter and fluorescence of single cells or particles in a stream.)
What is called inhibition is the share of the control response that was lost under treatment. `CCC(=O)N(c1ccccc1)C1(COC)CCN(CCn2nnn(CC)c2=O)CC1`: the inhibition is inactive: 3.69%. To `CCC(=O)N(c1ccccc1)C1(COC)CCN(CCc2cccs2)CC1` belongs inactive: 16.7%.

For the origin of these results see PubChem BioAssay AID2557 (NMMLSC, 2010).
